The values below come from patent US7709471B2, “Compounds” (AstraZeneca AB, priority 2006, dated 2010).

Sequences of proteins named here, by UniProt entry; tags and fusion partners are left off.
UniProt P53350, whole entry: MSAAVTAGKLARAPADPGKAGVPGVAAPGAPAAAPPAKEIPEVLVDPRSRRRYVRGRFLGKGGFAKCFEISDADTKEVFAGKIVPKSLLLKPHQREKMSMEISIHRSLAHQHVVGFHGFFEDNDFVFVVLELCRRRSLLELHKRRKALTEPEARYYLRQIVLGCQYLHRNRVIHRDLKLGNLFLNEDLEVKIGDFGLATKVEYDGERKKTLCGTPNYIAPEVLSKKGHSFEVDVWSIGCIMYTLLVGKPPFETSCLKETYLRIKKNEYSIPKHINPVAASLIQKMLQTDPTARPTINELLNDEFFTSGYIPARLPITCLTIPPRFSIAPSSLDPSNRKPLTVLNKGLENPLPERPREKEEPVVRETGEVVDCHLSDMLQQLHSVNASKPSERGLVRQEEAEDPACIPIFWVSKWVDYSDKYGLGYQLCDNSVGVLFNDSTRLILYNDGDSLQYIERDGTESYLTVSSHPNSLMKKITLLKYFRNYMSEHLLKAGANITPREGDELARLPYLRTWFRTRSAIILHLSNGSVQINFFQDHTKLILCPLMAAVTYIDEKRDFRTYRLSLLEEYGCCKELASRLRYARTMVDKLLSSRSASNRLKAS

A word on the IC50: it is the midpoint of a concentration-inhibition curve.

For assay [1], the system named is human colon tumour cell line HT29. The experiment in a line: Cellular Assay (phosphohistone H3 Ser10 mitotic marker, HT29). In kind it is cell-based. Conditions: HT-29, 24 h, read-out: IC50 (cellular assay, phosphohistone H3).
The next assay addresses recombinant Plk1 (Homo sapiens, UniProt P53350). The experiment in a line: In Vitro Plk1 Enzyme Assay (SPA, GST-Cdc25C phosphorylation). The format is biochemical. Conditions: IC50 (Plk1 enzyme inhibition).

For `COc1cc(C(=O)NC2CCN(C)CC2)ccc1Nc1ncc2c(n1)N(C1CCCCC1)CCC(=O)N2C` [Example 8, 4-[(2-Cyclohexyl-6-methyl-5-oxo-2,6,9,11-tetrazabicyclo[5.4.0]undeca-7,9,11-trien-10-yl)amino]-3-methoxy-N-(1-methyl-4-piperidyl)benzamide], the IC50 in assay [1] was under 300 nM; on recombinant Plk1, under 1000 nM.
